These results are taken from patent publication US12692268B2 (priority 2020, dated 2026).

Sequences of proteins named here, by UniProt entry; tags and fusion partners are left off.
UniProt P53779, whole entry: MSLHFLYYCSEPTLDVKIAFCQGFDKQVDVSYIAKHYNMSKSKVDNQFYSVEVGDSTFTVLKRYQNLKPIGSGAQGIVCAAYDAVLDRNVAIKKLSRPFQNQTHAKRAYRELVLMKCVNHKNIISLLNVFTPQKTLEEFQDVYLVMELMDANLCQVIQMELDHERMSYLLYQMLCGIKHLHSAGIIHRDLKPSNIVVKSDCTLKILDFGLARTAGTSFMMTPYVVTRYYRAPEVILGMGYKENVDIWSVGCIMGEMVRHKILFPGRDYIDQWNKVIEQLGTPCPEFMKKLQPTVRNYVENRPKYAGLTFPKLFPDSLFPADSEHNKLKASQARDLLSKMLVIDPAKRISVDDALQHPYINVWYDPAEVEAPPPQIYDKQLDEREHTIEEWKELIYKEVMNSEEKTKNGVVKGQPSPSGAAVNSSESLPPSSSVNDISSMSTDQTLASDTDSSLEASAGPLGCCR

This assay concerns the target JNK3 (Homo sapiens, UniProt P53779). The conditions noted are these: JNK3 enzyme activity, Table 2.

As for `NC(=O)N1Cc2nc(-c3ccc4c(c3)CCO4)n(-c3ccnc(N[C@H]4CCCN(C(=O)C5CC5)C4)n3)c2C1`, the half-maximal inhibitory concentration (IC50) (as a rule, the concentration needed to halve the response being measured) was 30 to 100 nM.
